Experimental data from PubChem BioAssay AID521 (Sanford-Burnham Center for Chemical Genomics, 2006).
This is a selection; strong and weak results do not stand in their true shares. Some results for these compounds are left out of this collection, so the calls shown say nothing about other tests. Activity calls are given as the source filed them. Rule as the data show it: active = inhibition above about 50%; inconclusive = no clear call, values can overlap the other calls; inactive = below that.

The chains behind the UniProt entries cited, without tags or fusion partners.
UniProt P35236, whole entry: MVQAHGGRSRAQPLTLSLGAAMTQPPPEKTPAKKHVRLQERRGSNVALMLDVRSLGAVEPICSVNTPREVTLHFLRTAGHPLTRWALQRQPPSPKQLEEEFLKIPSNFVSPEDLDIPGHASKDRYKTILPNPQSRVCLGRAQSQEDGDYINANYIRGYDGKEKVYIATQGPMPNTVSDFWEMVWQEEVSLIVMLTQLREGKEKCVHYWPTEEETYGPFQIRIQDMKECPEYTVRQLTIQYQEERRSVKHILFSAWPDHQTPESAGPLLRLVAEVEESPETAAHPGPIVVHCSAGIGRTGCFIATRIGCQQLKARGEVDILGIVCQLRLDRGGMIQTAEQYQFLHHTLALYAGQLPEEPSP

These compounds were tested against Tyrosine-protein phosphatase non-receptor type 7 (Homo sapiens) (UniProt P35236) (assay: inhibitors of human HePTP phosphatase, primary screen, biochemical, absorbance, leukemia target (AID 521;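 also: plate controls were vehicle for no effect and reference inhibitor for full effect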)). Details: recombinant HePTP phosphatase activity, OD absorbance; at 20 µM; stronger effect = higher value.

SMILES	inhibition
O=C(OC1CN2CCC1CC2)C(CO)(c1ccccc1)c1ccccc1 (stereo not drawn)	inactive: 7.4%
CN(C)c1cccc(C(=O)NCC2(N(C)C)CCCCC2)c1	inactive: 6.1%
COc1ccc(OC)c(C=C(C#N)C#N)c1	inactive: 3.2%
